# In ChEMBL document CHEMBL1140740, “Discovery of benzisoxazoles as potent inhibitors of chaperone heat shock protein 90” (J Med Chem, 2008):
# Biological target: Heat shock protein HSP 90-alpha (Homo sapiens, UniProt P07900)
row,SMILES,IC50 [nM]
1,Oc1cc(O)c(-c2noc3ccc(NCCN4CCOCC4)cc23)cc1Cl,30
2,Oc1ccc2c(-c3cc(Br)c(O)cc3O)noc2c1,190
